The target of this test is T1, MCH receptor (Homo sapiens, UniProt Q99705).
T1 construct: expressed in transfected cells; host or cells: CHO cells
Briefly: MCH Receptor Binding Assay. As to conditions: Table 1; membranes from CHO cells expressing the MCH receptor, [125I]-MCH, SPA. On the procedure:
MCH Receptor Binding Assay:
Membranes from CHO cells expressing the MCH receptor were prepared by lysing cells with 5 mM HEPES for 15 min at 4C. Cell lysates were centrifuged ([…], 15 min) and the pellet was re-suspended in 5 mM HEPES. For each 96-well plate (Microlite, Dynex Technologies), 1 mg of cell membranes were incubated with 10 mg of wheat germ agglutinin SPA beads (Amersham) for 5 min at 4 C in a volume of 10 ml of binding buffer (25 mM HEPES, 10 mM MGCl2, 10 mM NaCl, 5 mM MnCl2, 0.1% BSA). The membrane/bead mixture was centrifuged (1500×g, 3.5 min), the supernatant was aspirated, and the pellet was re-suspended in 10 ml binding buffer. The centrifugation, aspiration and re-suspension were then repeated. The membrane/bead mixture (100 μl) was then added to 96-well plates containing 50 μl of 500 pM [^125I]-MCH (NEN) and […] of the appropriate concentration of compound (4× the desired final concentration). Nonspecific binding was determined by including 1 μM MCH in the binding reaction. The binding reaction was incubated at room temperature for 2 h. Plates were then analyzed in a TOPCOUNT microplate scintillation counter (Packard). Data was analyzed and Ki values were determined using GraphPad Prim.

Chains of the proteins cited; added tags and fusions are not shown. Lines headed by an entry give the natural chain unless they say otherwise; changes in a name come on top.
UniProt Q99705: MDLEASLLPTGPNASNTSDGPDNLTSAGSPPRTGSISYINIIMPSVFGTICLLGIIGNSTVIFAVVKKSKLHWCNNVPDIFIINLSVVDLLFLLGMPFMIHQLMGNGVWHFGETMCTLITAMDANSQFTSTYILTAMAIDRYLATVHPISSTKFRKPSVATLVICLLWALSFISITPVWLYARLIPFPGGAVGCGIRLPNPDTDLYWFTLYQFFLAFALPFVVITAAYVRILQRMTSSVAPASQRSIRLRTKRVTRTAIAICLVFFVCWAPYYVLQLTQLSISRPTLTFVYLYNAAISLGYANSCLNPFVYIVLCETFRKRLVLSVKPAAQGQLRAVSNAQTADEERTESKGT

pKi: −log10 of the molar value.

As usually defined, the pKi is the negative decadic logarithm of the Ki, by convention in mol/L. Compound `N#Cc1cccc(-c2ccc(CCN(CC(=O)Nc3cc(Cl)cc(Cl)c3)C(=O)CN3CC[C@@H](O)C3)cc2)c1` [Example 14] had a pKi of 7.82.

(Values after US7045636B2, “MCH antagonists for the treatment of obesity” (Schering Corporation, priority 2001, dated 2006).)
